Earlier results as cited in patent publication US8877908B2, “Stimulus-responsive apta chelamers” (The Administrators of the Tulane Educational Fund, priority 2008, dated 2014).

Sequences of proteins named here, by UniProt entry; tags and fusion partners are left off. Residues count along the entry.
UniProt P00760, 24-246 limits assumed: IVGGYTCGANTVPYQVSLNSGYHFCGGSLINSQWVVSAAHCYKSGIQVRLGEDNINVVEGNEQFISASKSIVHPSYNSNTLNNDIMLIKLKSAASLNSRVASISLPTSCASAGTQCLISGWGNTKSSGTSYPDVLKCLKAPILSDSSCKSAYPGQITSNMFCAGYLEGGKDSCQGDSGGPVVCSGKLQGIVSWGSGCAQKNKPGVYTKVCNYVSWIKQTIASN

Biological target: trypsin (Bos taurus, UniProt P00760)
Conditions: read-out: IC50 for trypsin inhibition; Melkko et al. 2007; cited from earlier work

SMILES: N=C(N)c1ccc(CNC(=O)CCCCNC(=S)Nc2cccc(I)c2)cc1
- IC50: 800 nM
